# From publication PMC2854129, “Spadin, a Sortilin-Derived Peptide, Targeting Rodent TREK-1 Channels: A New Concept in the Antidepressant Drug Design” (PLoS Biology, 2010)
# Key:
# [1] = in vivo
# Experimental: Since spadin exerted efficient effects after i.p. or i.v. administration, we evaluated its ability to pass through the blood-brain barrier. ^125I-labelled spadin (1 nmol of spadin plus 2×10^6 cpm ^125I-spadin) was i.v. injected and animals were sacrificed 30 min following injection. The brains were rapidly removed and homogenized. The radioactivity recovered in the brain was acid-extracted, quantified, and analyzed by HPLC. […] The concentration of spadin recovered into the brain was estimated to stand around 10 nM, a concentration that corresponds to the affinity of spadin for TREK-1 and sufficient to be active on TREK-1 channel activity. This value was also in the same range of the IC50 determined by electrophysiological measurements (Figure 3C).
# TREK-1 [2] = target: T1, TREK-1 (Mus musculus, UniProt P97438); assay: Whole-cell patch-clamp, native currents in β-TC3 pancreatic cell line; format: cell-based; set-up: expressed in transfected cells; host or cells: COS-7 cells, DEAE-dextran transfection; details: 1 µM spadin, aa 10 µM, K+ blockers; read-out: inhibition of native current
# T1 sequence (P97438 1-426): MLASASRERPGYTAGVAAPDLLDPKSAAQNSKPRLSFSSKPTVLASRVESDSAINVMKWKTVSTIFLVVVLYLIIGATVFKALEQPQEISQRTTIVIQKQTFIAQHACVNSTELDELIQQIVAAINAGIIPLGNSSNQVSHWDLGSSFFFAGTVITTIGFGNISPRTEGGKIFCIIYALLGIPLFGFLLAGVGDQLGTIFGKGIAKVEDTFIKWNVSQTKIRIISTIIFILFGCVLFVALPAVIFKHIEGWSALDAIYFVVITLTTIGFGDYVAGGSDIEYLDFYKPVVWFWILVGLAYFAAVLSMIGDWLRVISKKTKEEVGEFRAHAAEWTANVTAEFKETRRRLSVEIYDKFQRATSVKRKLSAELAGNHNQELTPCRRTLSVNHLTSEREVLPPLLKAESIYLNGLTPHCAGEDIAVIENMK
# Experimental: Native currents elicited by these cells were recorded in the whole-cell configuration of the patch-clamp technique (as described for COS-7 cells) and in the presence of K^+ blockers.
# TREK-1 [3] = target: T1, TREK-1; assay: Whole-cell patch-clamp, TREK-1 transfected COS-7 cells; format: cell-based; set-up: GFP; expressed in transfected cells; host or cells: COS-7 cells, DEAE-dextran transfection; details: 100 nM spadin, 0 mV, 10 µM aa, K+ blockers; mean ± SD, n = 16
# Experimental: All electrophysiological experiments were done on COS-7 cells seeded at a density of 20,000 cells/35-mm dish 24 h before transfection. Cells were transfected by the classical DEAE-dextran method with TREK-1-GFP plasmids (0.1 µg/µL). Cells were visualized 48–72 h after transfection using fluorescence.
# The whole-cell patch-clamp technique was used to evaluate TREK-1 potassium channel current by using a RK 400 patch-clamp amplifier (Axon Instruments, USA), as previously described. Currents were lowpass filtered at 3 kHz, digitized at 10 kHz using a 12-bit analog-to-digital converter. […] The bath solution contained (in mM) 150 NaCl, 5 KCl, 3 MgCl2, 1 CaCl2, and 10 HEPES, adjusted to pH 7.4 with NaOH; the patch pipette solution contained (in mM) 155 KCl, 3 MgCl2, 5 EGTA, and 10 HEPES, adjusted to pH 7.2 with KOH. Cells were clamped at −80 mV and voltage changes were either applied by ramp (from −100 to 50 mV, 1 s in duration) or by step (from −100 to 40 mV, 1.5 s in duration). Cells were continuously superfused with a microperfusion system. The pipette capacitance was not subtracted from total membrane capacitance and there was no leak subtraction. […]
# Pclamp software was used to analyze currents recorded in the whole-cell mode measured at 0 mV. Results are expressed as means ± SD. […]
smiles,measurement,setting,value
CC[C@H](C)[C@H](NC(=O)[C@@H]1CCCN1C(=O)CNC(=O)[C@H](CO)NC(=O)[C@H](Cc1c[nH]c2ccccc12)NC(=O)[C@H](CCCNC(=N)N)NC(=O)[C@@H]1CCCN1C(=O)[C@H](CC(C)C)NC(=O)[C@@H]1CCCN1C(=O)[C@H](C)NC(=O)[C@@H](N)Cc1ccc(O)cc1)C(=O)NCC(=O)N[C@H](C(=O)N[C@@H](CO)C(=O)N[C@@H](Cc1c[nH]c2ccccc12)C(=O)NCC(=O)N[C@@H](CC(C)C)C(=O)N[C@@H](CCCNC(=N)N)C(=O)O)C(C)C [spadin],amount recovered in the brain after i.p. vs i.v.,[1],Identical amounts
same,inhibition at 1 µM,TREK-1 [2],36%
same,block of aa stimulated TREK-1 current,TREK-1 [3],63%±12%
